Source: paper PMC10352325, “Nitro-benzylideneoxymorphone, a bifunctional mu and delta opioid receptor ligand with high mu opioid receptor efficacy” (Frontiers in Pharmacology, 2023)

Sequences of proteins named here, by UniProt entry; tags and fusion partners are left off. A change or cut given only in a name is not applied to a line headed by its entry.
UniProt P41143, whole entry: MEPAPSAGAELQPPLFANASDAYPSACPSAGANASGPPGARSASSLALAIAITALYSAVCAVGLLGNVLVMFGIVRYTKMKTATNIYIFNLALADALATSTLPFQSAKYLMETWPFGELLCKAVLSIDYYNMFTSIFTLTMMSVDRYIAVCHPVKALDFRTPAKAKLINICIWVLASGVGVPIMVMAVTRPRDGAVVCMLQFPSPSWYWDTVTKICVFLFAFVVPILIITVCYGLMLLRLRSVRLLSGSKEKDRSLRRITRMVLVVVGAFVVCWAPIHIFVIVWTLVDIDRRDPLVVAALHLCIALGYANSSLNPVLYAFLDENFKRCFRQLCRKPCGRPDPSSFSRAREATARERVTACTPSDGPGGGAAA
UniProt P41145: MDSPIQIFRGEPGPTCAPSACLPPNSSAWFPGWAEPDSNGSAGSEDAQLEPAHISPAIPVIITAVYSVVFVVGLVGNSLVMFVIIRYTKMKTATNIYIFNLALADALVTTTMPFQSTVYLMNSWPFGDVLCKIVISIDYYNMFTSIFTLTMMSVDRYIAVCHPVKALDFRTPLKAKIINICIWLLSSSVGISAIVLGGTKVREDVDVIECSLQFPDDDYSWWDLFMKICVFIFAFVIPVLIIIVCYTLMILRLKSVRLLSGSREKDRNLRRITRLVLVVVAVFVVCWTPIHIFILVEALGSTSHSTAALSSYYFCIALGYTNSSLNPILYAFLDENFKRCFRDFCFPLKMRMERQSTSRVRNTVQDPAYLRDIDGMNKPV
UniProt P35372, whole entry: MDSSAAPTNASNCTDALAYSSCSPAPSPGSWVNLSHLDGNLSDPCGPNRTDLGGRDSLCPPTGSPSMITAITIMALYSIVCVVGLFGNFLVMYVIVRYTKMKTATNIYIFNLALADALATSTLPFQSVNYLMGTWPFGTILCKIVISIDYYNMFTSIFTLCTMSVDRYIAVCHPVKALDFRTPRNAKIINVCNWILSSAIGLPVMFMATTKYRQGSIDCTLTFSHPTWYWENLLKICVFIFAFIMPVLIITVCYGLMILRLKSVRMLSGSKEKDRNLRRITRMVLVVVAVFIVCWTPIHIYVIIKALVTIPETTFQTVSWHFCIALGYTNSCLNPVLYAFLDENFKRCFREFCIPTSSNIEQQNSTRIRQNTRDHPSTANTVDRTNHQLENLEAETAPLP

How the values were obtained:
DOPr = target: T1, DOPr (Homo sapiens, UniProt P41143); test: biochemical; conditions: read-out: DOPr Emax ±SEM
T1 construct: host or cells: CHO

KOPr [1] = target: T2, KOPr (Homo sapiens, UniProt P41145); set-up: host or cells: CHO; conditions: read-out: Ki (±SEM, nM) KOPr; cited from earlier work
KOPr [2] = target: T2, KOPr; conditions: read-out: KOPr EC50 ± SEM; cited from earlier work
MOPr = MOPr (Homo sapiens, UniProt P35372); conditions: cited from earlier work

For `CC(C)[C@H](NC(=O)[C@H](CCC(=O)O)NC(=O)[C@H](Cc1ccccc1)NC(=O)[C@@H](C)NC(=O)[C@@H](N)Cc1ccc(O)cc1)C(=O)N[C@H](C(=O)NCC(N)=O)C(C)C` [Deltorphin-II, reference compound], the Emax (DOPr) was 100%.
In the case of `COc1ccc2c3c1O[C@H]1C(=O)CC[C@@]4(O)[C@@H](C2)N(C)CC[C@]314` [oxycodone], the Ki (KOPr [1]) is listed as over 2000 nM, the EC50 (KOPr [2]) is listed as over 2000 nM and the “MOPr Emax ±SEM” value (MOPr) is listed as 98 ± 6%.
